For this assay, the system named is VEGFR2 and PDGFRα phosphorylation. Conditions: hiPSC-CMs.

Consider `CNC(=O)c1cc(Oc2ccc(NC(=O)Nc3ccc(Cl)c(C(F)(F)F)c3)cc2)ccn1` [sorafenib], for which the “VEGFR2/PDGFR inhibition at nanomolar concentrations” value is given as “complete VEGFR2/PDGFR inhibition”.

These data come from paper PMC5409837 (Science translational medicine, 2017).
